Experiment [1] is filed under the species Homo sapiens. The experiment can be described thus: Selectivity for Aurora A kinase (unknown origin) over Aurora C kinase (unknown origin).
The species entered for experiment [2] is Homo sapiens. The experiment can be described thus: Selectivity for Aurora A kinase (unknown origin) over Aurora B kinase (unknown origin).

SMILES strings stand for the structures.

Turning to `CCN1CCN(C(=O)Cc2ccc(Nc3ncc(F)c(Nc4ccc(C(=O)Nc5ccccc5Cl)cc4)n3)cc2)CC1`, the Selectivity ratio in experiment [1] and in experiment [2] was 1000 in each case.
